High-throughput results deposited in PubChem by National Center for Advancing Translational Sciences (NCATS).
ERG-DNA inh = inhibitors of human ERG Ets domain-DNA interaction; fluorescence polarization, His-ERG Ets domain / labelled DNA; actives 0.028% (n = 370,000); Potency, µM (titrated, usually from 76.9 µM), for the others: top-dose FP activity, negative = inhibition, actives largely listed as inhibitors; P11308; active = well fitted inhibition curve with a large enough effect in the polarisation, with a control signal flat; inconclusive = small, poorly fitted or top-dose-only effect, or effect the other way, or a change in a side signal; inactive = no such curve, though single readings can be large or run the other way; the % refers to the polarisation;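 note: polarization taken with two DNA probes labelled with fluorescein and Texas red; potency is the fitted concentration of half-maximal effect; % of control where 0% means no effect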
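His-tagged ERG Ets domain (1 uM in the protein solution; 300mM KCl, 50mM Tris-HCl, 1mM EDTA, 1mM DTT, pH 7.5) received compound, then a probe mix of 5 nM fluorescein-DNA and 100nM Texas-615-DNA. Fluorescence polarization was read for both dyes.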
PINK1 expr mod = PINK1 expression modulation | PINK1 immunofluorescence, high-content cytometry, 24 h | Potency, µM (top dose mostly 76.6 µM), inactives show at the top dose activation (PINK1 increase), usual class: activators | actives 0.2% (n = 410,000) | AID 624263; active = well fitted activation curve with a large enough effect; inconclusive = small, poorly fitted or top-dose-only effect; cell line not stated here; note: potency is the fitted concentration of half-maximal effect; % of control where 0% means no effect; nearly all actives have a fitted effect of over 65% in size
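Measures PINK1 amount and localization on or inside mitochondria by immunofluorescence. Stable cells get compounds at 5 concentrations for 24 hours before fixation and staining; CCCP controls included.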
miR-21 FLuc = raises the signal of a miR-21 reporter | AID 2288 | 340,000 tested, under 10 active | Potency, µM (series often up to 38.3 µM), without a hit: at the highest dose reporter change, positive = more light | HeLa miR-21 FLuc reporter, luciferase, 48 h; active = well fitted rising curve with a large enough effect; inconclusive = small, poorly fitted or top-dose-only effect; inactive = no such curve, though single readings can be large or run the other way;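 further: % of control where 0% means no effect; miR-21 action dims this reporter so a rising signal means less miR-21 action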
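HeLa miR-21-FLuc reporter line, endogenous miR-21; 2000 cells/well in DMEM/10% FBS; compound titration up to ~40uM final, 48 h, 37 degree Celsius; luciferase detection reagent, 15 min lysis, CCD luminescence.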
12-LOX inh = inhibitors of human 12S-lipoxygenase ALOX12; P18054; purified 12hLO, xylenol orange hydroperoxide absorbance; Potency, µM (series often up to 108 µM), for inactives: at the top dose activity change, negative = inhibition, most hits filed as inhibitors; actives 1.1% (n = 580,000); note: potency is the fitted concentration of half-maximal effect; % is set by controls: 0 for no effect and ±100 for the full control effect
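Purified human 12hLO (150 nM final) in 25 mM Hepes, 0.01% Triton X-100, pH 7.0 was preincubated 15 min at room temperature with compound. Then 40 uM arachidonic acid was added, 30 min. Hydroperoxide was read by Fe-XO absorbance ratio 573/405 nm.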
PTHR1 ag = agonists of human PTHR1 parathyroid hormone receptor. Q03431. HEK293 GP2 PTHR1 cells, GloSensor cAMP luminescence, 1 h. Potency, µM (top dose mostly 115 µM), without a hit: top-dose activation, actives largely listed as activators. actives 0.075% (n = 410,000); note: potency is the fitted concentration of half-maximal effect; nearly all actives have a fitted effect of over 55% in size
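HEK-293-derived GP2 cells expressing PTHR1 and a GloSensor cAMP reporter, 3,000/well, plated overnight, given luciferin plus IBMX (each 0.5 mM as added) for 1 h at 37 °C, then compound for 1 h at 37 °C. Luminescence was read after 15 min at room temperature.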
Giardia killer = kills Giardia lamblia; Giardia lamblia trophozoite viability; activity change, % at 7.66 µM, hits read low; actives 0.15% (n = 340,000); in the data active = activity change below about -80%; inconclusive = between about -30% and that limit;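 note: parasites exposed to compound for two days anaerobically before the ATP read; % is set by controls: 0 for no effect and ±100 for the full control effect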
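Trophozoites 100 cells/well + cpd; 48 hrs, 37 deg C, anaerobic. ATPLite 1-Step added, 15-30 min RT, luminescence read (ATP-based viability).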
* marks the source's active call; other numbers are inactive results; i = inactive; ? = inconclusive; . = no result; [ ] = another dose, or the depositor's remark. Compounds with a hit are over-represented: about 1.3% of the library has one in this group of screens. Unless noted, calls come from the whole dose curve; as a rule, active = well fitted curve in the direction sought with a large enough effect; inconclusive = small, poorly fitted or top-dose-only effect, or another doubt; inactive = no such curve, though single readings can be large; an effect the other way counts as inactive or inconclusive.

SMILES | ERG-DNA inh | PINK1 expr mod | miR-21 FLuc | 12-LOX inh | PTHR1 ag | Giardia killer
C=CCn1c(=O)[nH]c2cc(C(=O)N3CCN(c4cc(C)ccc4C)CC3)ccc2c1=O | -1% | 11% | 8% | 0% | -16% | -4
CCCCCCn1nc(C(=O)NCc2ccc(C(=O)O)cc2)c2ccccc2c1=O | . | . | . | -5% | . | .
Cc1cc(C)cc(Cn2c3ccc(NC(=O)NCCc4cccs4)cc3c(=O)n2C)c1 | . | 0% | . | ? | i | .
CC(=O)c1cccc2c(O)c(C3=Nc4ccccc4C3=O)[nH]c12 | 1% | -1% | -46% | -4% | i | 2
CCOC(=O)c1c(NC(=O)c2ccn(CC)n2)sc2c1CCCC2 | 9% | 10µM* | -10% | -3% | i | 4
CCOC(=O)c1c(NC(=S)NNS(=O)(=O)c2ccc(Br)cc2)sc2c1CCCCC2 | 0% | 7% | 24% | 32µM* | -33% | -13
COc1cc(CNCCc2ccc(S(N)(=O)=O)cc2)ccc1OCc1ccc(Cl)cc1 | -1% | 5%[38.3 µM] | 26% | 40µM* | ? | -6
Cc1nn(CCCC(=O)Nc2cc(Oc3ccccc3)cc([N+](=O)[O-])c2)c(C)c1[N+](=O)[O-] | -8% | 6% | 13% | 8% | -36% | -12
Cc1ccc(C)c(Oc2cc(NC(=O)CCCn3nc(C)c([N+](=O)[O-])c3C)cc([N+](=O)[O-])c2)c1 | -14% | 45µM* | -10% | -8% | -14% | -1
CCCn1c(/C=C/c2ccccc2)nc2ccccc21 | 5% | 1% | -26% | 3% | -24% | -8
CCn1c(/C=C/c2cc[n+](C)cc2)nc2ccccc21 | 9% | -2% | -1% | 11µM* | i | -18
O=C1C2CCCN2C(=O)N1CCCN1CCN(c2cccc(Br)c2)CC1 (stereo not given) | 4% | 2% | -7% | 4µM* | -32% | 2
O=C(Nc1cccc(-c2nc3cc(Cl)ccc3o2)c1)c1ccc(F)cc1 | -2% | 0% | 0% | 12% | -38% | .
CN(CCOC(=O)/C=C/c1ccco1)Cc1ccccc1 | 13% | 2% | -1% | -12% | -1% | 11
Cc1ccsc1/C=C/C1=Cc2c(sc(N)c2C#N)C(C)(C)C1 | . | . | . | 18µM* | . | .
Cc1ccsc1/C=C/C1=Cc2c(sc(NC(=O)CSc3n[nH]c(N)n3)c2C#N)C(C)(C)C1 | 16% | 5%[38.3 µM] | -8% | ? | -23% | -10
COc1ccccc1-c1noc2nc(Nc3cccc(Cl)c3)ccc12 | . | . | . | 28µM* | . | .
CCC(CO)Oc1cc(NC(=O)c2cccc(Cl)c2)c2ncn(C(C)C)c2c1 (stereo not given) | -1% | 1% | . | -21% | i | 23
O=C(Cn1ncc2c3ccccc3n(Cc3ccc(F)cc3)c2c1=O)NCCC1=CCCCC1 | 1% | 2% | 3% | -23% | i | .
O=C(NCCOc1ccccc1)c1nc2c(o1)CCN(Cc1cc(F)ccc1F)CC2 | . | . | . | -1%[176 µM] | . | .
CCCCN1C(=O)c2[nH]nc(-c3ccccc3O)c2C1c1ccc(OCc2ccccc2)cc1 (stereo not given) | 9% | -1% | ? | 1% | 22µM* | .
COCCCN1C(=O)c2[nH]nc(-c3ccccc3O)c2C1c1ccc(OCc2ccccc2)cc1 (stereo not given) | -2% | 0% | ? | -8% | -90% | .
O=C(c1cnn2cc(CCO)cnc12)N1CCCC(CCc2ccc(F)cc2)C1 (stereo not given) | . | . | . | 2% | . | .
CC1CCN(C(=S)NC(=O)c2ccccc2)CC1 | -13% | -1% | -5% | 0% | i | -12
CC1CCN(C(=S)NC(=O)c2ccc(C(C)(C)C)cc2)CC1 | -9% | 5% | -1% | 32µM* | -6% | -8

Records above marked active in PTHR1 ag.
structure,ERG-DNA inh,PINK1 expr mod,miR-21 FLuc,12-LOX inh,PTHR1 ag
CCCCN1C(=O)c2[nH]nc(-c3ccccc3O)c2C1c1ccc(OCc2ccccc2)cc1 (stereo not given),9%,-1%,?,1%,22µM*

Following part.
SMILES | ERG-DNA inh | PINK1 expr mod | miR-21 FLuc | 12-LOX inh | PTHR1 ag | Giardia killer
COCCOC1CCOC2(CCN(C(=O)CCc3ccccc3)CC2)C1 (stereo not given) | . | . | . | 11% | . | .
Cc1c(Br)c(=O)oc2c(Br)c(O)c(O)cc12 | 4% | 0% | 1% | 22µM* | i | 17
COc1ccc(CC(=O)N2C[C@@H](C(N)=O)[C@H](c3nc(C)no3)C2)cc1Cl | . | . | . | 20% | . | .
Cc1ccn2c(-c3n[nH]c(=S)n3C)c(C)nc2c1 | -6% | -1% | -1% | 45µM* | -15% | 5
O=C(NCc1ccco1)c1ccccc1NS(=O)(=O)c1ccc(Cl)s1 | 8% | 18% | 11% | 0% | -33% | -6
Cc1ccc(NC(=O)c2ccccc2NS(=O)(=O)c2ccc(Cl)s2)cc1 | 10% | 20µM* | ? | ? | -36% | 16
CS(=O)(=O)c1ccccc1C(=O)Nc1ccccc1Cc1ccccc1 | 4% | 0% | 5% | -11% | -10% | 14
O=C(Nc1ccccc1Cc1ccccc1)c1ccccc1NS(=O)(=O)c1ccc(Cl)s1 | 3% | 11µM* | ? | ? | -47% | -3
COc1ccc(CCN2CC(C(=O)NCc3cccc(F)c3)CCC2=O)cc1 (stereo not given) | . | -1% | . | -8% | -23% | .
CC(C#Cc1ccc2c(c1)COc1c3ccccc3nn1-2)OC(C)(C)C (stereo not given) | -5% | 0% | . | -9% | -19% | -8
CCN(CC)C(=O)CC[C@@H]1CNC(=O)[C@@H]2C[C@H](NC(=O)NC(C)C)CN12 | . | . | . | 47%[176 µM] | . | .
O=C(/C=C/c1ccsc1)c1ccc(O)cc1 | . | . | . | 50µM* | . | .
N#Cc1ccc(C(=O)/C=C/c2ccsc2)cc1 | . | . | . | 3% | . | .
NC(=O)CC(c1ccccc1)c1ccc2c(c1)OCO2 (stereo not given) | 6% | -1% | -4% | 14% | i | 4
NC(CSC(c1ccccc1)(c1ccccc1)c1ccc2c(c1)OCO2)C(=O)O (stereo not given) | . | 7% | . | 13µM* | i | .
CCc1noc(-c2cn(C3CCN(C(=O)c4sccc4C)C3)nn2)n1 (stereo not given) | . | . | . | 45µM* | . | .
COc1ccc(C(=O)N2CCc3ccc(C(=O)NCC(C)C)cc32)cc1 | . | . | . | 76% | . | .
CN1CCc2nc(SCC(=O)Nc3ccc(Cl)cc3)c(C#N)cc2C1 | 4% | -1% | . | 5.6µM* | -8%[57.5 µM] | -13
Cc1nc(SCC(=O)Nc2ccc(Cl)cc2)c(C#N)c2c1CCCC2 | . | . | . | 0% | . | .
CCCNC(=O)C(C)NC(=O)Cc1ccc(S(=O)(=O)N2CCCCC2)cc1 (stereo not given) | . | . | . | 20µM* | . | .
CN(c1ccccc1)S(=O)(=O)c1ccc(Cl)c(C(=O)Nc2ccc(-c3nc4ccccc4[nH]3)cc2)c1 | -9% | 11µM* | 16% | -4% | 0% | -1
CCCN(CCC)c1ccc(/C=C/c2sc3ccccc3[n+]2CCCCI)cc1 | . | 14µM* | . | . | . | .

Filtered by structure, the entries above with an aryl thioether with sulfur outside any ring (three)
SMILES | ERG-DNA inh | PINK1 expr mod | miR-21 FLuc | 12-LOX inh | PTHR1 ag | Giardia killer
Cc1ccsc1/C=C/C1=Cc2c(sc(NC(=O)CSc3n[nH]c(N)n3)c2C#N)C(C)(C)C1 | 16% | 5%[38.3 µM] | -8% | ? | -23% | -10
CN1CCc2nc(SCC(=O)Nc3ccc(Cl)cc3)c(C#N)cc2C1 | 4% | -1% | . | 5.6µM* | -8%[57.5 µM] | -13
Cc1nc(SCC(=O)Nc2ccc(Cl)cc2)c(C#N)c2c1CCCC2 | . | . | . | 0% | . | .
